pIC50: −log10 of the molar value.

Chains of the proteins cited; added tags and fusions are not shown.
UniProt P42336, whole entry: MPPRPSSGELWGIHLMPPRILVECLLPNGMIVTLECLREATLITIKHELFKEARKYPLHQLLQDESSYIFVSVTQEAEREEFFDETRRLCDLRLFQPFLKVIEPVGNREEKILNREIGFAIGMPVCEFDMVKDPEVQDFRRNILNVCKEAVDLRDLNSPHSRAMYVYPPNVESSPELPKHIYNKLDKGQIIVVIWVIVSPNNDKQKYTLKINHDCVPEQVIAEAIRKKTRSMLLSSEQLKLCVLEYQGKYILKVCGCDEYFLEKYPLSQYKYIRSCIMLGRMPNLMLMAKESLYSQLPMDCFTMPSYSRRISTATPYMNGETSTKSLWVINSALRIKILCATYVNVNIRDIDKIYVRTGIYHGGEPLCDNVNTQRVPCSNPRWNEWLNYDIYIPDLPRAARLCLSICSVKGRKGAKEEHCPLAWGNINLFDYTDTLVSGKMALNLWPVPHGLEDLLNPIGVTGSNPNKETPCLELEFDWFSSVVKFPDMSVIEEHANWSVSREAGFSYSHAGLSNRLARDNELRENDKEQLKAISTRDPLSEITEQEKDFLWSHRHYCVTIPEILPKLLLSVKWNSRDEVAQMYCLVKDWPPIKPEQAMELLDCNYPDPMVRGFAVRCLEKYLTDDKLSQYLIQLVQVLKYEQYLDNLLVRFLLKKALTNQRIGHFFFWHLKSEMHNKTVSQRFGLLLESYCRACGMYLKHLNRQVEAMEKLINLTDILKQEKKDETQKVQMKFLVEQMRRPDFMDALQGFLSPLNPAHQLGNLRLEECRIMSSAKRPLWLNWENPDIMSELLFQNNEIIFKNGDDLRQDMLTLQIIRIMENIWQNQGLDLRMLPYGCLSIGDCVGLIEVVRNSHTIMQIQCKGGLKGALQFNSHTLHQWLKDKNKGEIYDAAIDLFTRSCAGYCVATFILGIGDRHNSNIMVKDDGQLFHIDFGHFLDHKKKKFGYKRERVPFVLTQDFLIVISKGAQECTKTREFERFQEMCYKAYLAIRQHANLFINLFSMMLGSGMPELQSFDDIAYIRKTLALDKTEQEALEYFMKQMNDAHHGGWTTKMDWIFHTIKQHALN

The target in the test is Phosphatidylinositol 4,5-bisphosphate 3-kinase catalytic subunit alpha isoform (Homo sapiens, UniProt P42336). Briefly: Inhibition of PI3Kalpha (unknown origin) using PIP2/PS as substrate compound preincubated for 15 mins by luciferase-based luminescence assay.

`COc1ccc(-c2cc3c(C)nc(N)nc3n(C3CCCC3)c2=O)cn1`: the pIC50 (in general, the negative decadic logarithm of the IC50, by convention in mol/L) was 8.55.

Source of the values: ChEMBL document CHEMBL3112582, “Identification of novel 7-amino-5-methyl-1,6-naphthyridin-2(1H)-one derivatives as potent PI3K/mTOR dual inhibitors” (Bioorg Med Chem Lett, 2014).
